Test results taken from ChEMBL document CHEMBL3596163, “Discovery of imidazo[1,5-a]pyridines and -pyrimidines as potent and selective RORc inverse agonists” (Bioorg Med Chem Lett, 2015).

Key:
[1] = species: Homo sapiens; test: Selectivity ratio of EC50 for GAL4-fused human FXR to EC50 for GAL4-fused human RORc
[2] = species: Homo sapiens; test: Selectivity ratio of EC50 for GAL4-fused human LXRalpha to EC50 for GAL4-fused human RORc
[3] = species: Homo sapiens; test: Selectivity ratio of EC50 for GAL4-fused human LXRbeta to EC50 for GAL4-fused human RORc
[4] = species: Homo sapiens; test: Selectivity ratio of EC50 for GAL4-fused human PXR to EC50 for GAL4-fused human RORc

Measured: Ratio EC50

O=C(O)c1ccc(-c2nc(C(=O)c3c(Cl)cccc3C3CC3)n3c2CCCC3)c(F)c1
> 1000: [1] | [2] | [3] | [4]

O=C(O)c1ccc(-c2nc(C(=O)c3c(Cl)cccc3C(F)(F)F)n3ccccc23)c(F)c1
> 1000: [1] | [2] | [3] | [4]

O=C(O)c1ccc(-c2nc(C(=O)c3c(Cl)cccc3C(F)(F)F)n3ccccc23)cc1O
> 1000: [1] | [2] | [3] | [4]

O=C(O)c1ccc(-c2nc(C(=O)c3c(Cl)cccc3C(F)(F)F)n3c2CCCC3)c(F)c1
> 1000: [1] | [2] | [3] | [4]
